Measured values published in patent US20120058953A1, “COMPOSITIONS AND METHODS FOR ENHANCING APOPTOSIS” (Genentech, Inc., priority 2003, published 2012).
Where two headings read alike, the source gives them in different places.

The chains behind the UniProt entries cited, without tags or fusion partners. Residues count along the entry.
UniProt P98170, 241-356: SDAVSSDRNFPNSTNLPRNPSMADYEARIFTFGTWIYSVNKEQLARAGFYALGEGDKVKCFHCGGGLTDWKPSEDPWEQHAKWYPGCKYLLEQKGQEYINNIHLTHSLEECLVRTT
UniProt P98170, 124-240 C202A/C213G: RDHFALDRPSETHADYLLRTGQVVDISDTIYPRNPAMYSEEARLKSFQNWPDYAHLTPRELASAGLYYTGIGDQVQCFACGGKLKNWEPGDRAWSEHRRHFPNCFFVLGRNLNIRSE

Key:
XIAP-BIR3 [1] = target: T1, XIAP-BIR3 (Homo sapiens, UniProt P98170); test: fluorescence polarization competition assay, XIAP-BIR3; type: binding
T1 construct: X-IAP BIR3 (amino acids residues 241-356); made in house; host or cells: Escherichia coli BL21 (DE3)
Method: (§1) The apparent Kd values can be determined from the EC50 values.
(§2) The vectors pET15b-XIAPBIR2C202AC218G, pET15b-XIAPBIR3, and pET15b-MLIAPBIR were introduced into Escherichia coli strain BL21 (DE3). Overnight cultures were diluted 1:100 and grown at 30° C. in LB media with […] to an A600 of 0.5-0.7 with vigorous shaking. Isopropyl b-D-thiogalactoside (IPTG) was added to a final concentration of 1 mM and cultures were grown for 4 hours at 30° C. One litre of frozen cell pellet was resuspended in 100 ml Buffer A (50 mM Tris [pH 8.0], 300 mM NaCl, 5 mM b-mercaptoethanol, 0.5 mM PMSF, 2 mM benzamidine) with 5 mM imidazole and placed on ice for 30 minutes. Cells were lysed by homogenizing followed by repeated passes through a microfluidizer. Lysate was cleared by centrifugation at 15,000 rpm for 30 minutes. The supernatant was loaded onto a Ni-agarose column (Qiagen), washed with 10 column volumes Buffer A with 10 mM imidazole, and eluted with 10 column volumes Buffer A with 300 mM imidazole. Fractions containing BIR protein were pooled. Final concentrations of 5 mM DTT and 100 mM zinc acetate were added. The pool was concentrated and loaded on a Superdex 75™ (Pharmacia) sizing column. Protein eluted over one column volume into 50 mM Tris 8.0, 300 mM NaCl, 0.5 mM PMSF, 2 mM benzamidine, 5 mM DTT, 50 mM zinc acetate, 1 mM sodium azide. Fractions containing BIR protein were pooled and dialyzed against 4 changes of buffer containing 50 mM Tris (pH 8.0), 120 mM NaCl, 5 mM DTT, 0.5 mM PMSF, 2 mM benzamidine, 50 mM zinc acetate, 1 mM sodium azide. Protein was concentrated and stored at −80° C. for further characterization.
(§3) The apparent Kd values were determined from the EC50 values. […] Samples were read after a 10-minute incubation.

XIAP-BIR2 [2] = target: T2, XIAP-BIR2 (Homo sapiens, UniProt P98170, C202A/C213G); test: fluorescence polarization competition assay, XIAP-BIR2; type: binding
T2 construct: X-IAP BIR2 (amino acid residues 124-240 with mutations C202A and C213G); made in house; host or cells: Escherichia coli BL21 (DE3)
Method: as §1
as §2, with “Protein eluted over one column volume into 50 mM Tris 8.0, 300 mM NaCl, 0.5 mM PMSF, 2 mM benzamidine, 5 mM DTT, 50 mM zinc acetate, 1 mM sodium azide. Fractions containing BIR protein were pooled and dialyzed against 4 changes of buffer containing 50 mM Tris (pH 8.0), 120 mM NaCl, 5 mM DTT, 0.5 mM PMSF, 2 mM benzamidine, 50 mM zinc acetate, 1 mM sodium azide. Protein was concentrated and stored at −80° C. for further characterization.” left out
as §3

ML-IAP-BIR [3] = target: T3, ML-IAP-BIR (Homo sapiens, UniProt Q96CA5); test: fluorescence polarization competition assay, ML-IAP-BIR; type: binding; conditions: for specificity for ML-IAP-BIR relative to XIAP-BIR3, in words: substitution at position 4′
T3 construct: made in house; host or cells: Escherichia coli BL21 (DE3)
T3 sequence (Q96CA5 63-179): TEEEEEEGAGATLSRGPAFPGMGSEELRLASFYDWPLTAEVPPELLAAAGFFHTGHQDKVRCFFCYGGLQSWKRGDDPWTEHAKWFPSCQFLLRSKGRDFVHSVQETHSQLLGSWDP
Method: as §1, §2, §3

XIAP-BIR2 [4] = target: T4, XIAP-BIR2 (human, UniProt P98170 124-240); test: fluorescence polarization competition, SMAC-FAM or Hid-FAM probe
T4 construct: range 124-240; The text says C213G, the vector name reads pET15b-XIAPBIR2C202AC218G; Expressed in E. coli from pET15b

ML-IAP-BIR [5] = target: T5, ML-IAP-BIR (human, UniProt Q96CA5 63-179); test: as above
T5 construct: range 63-179; Expressed in E. coli from pET15b and purified on Ni-agarose; also called BIR domain of ML-IAP
T5 sequence (looked up): T3 sequence (Q96CA5 63-179)

XIAP-BIR3 [6] = target: T6, XIAP-BIR3 (human, UniProt P98170 241-356); test: as above
T6 construct: range 241-356; Expressed in E. coli from pET15b and purified on Ni-agarose

XIAP-BIR2 [7] = target: T4, XIAP-BIR2; test: fluorescence polarization competition, SMAC-FAM probe
ML-IAP-BIR [8] = target: T5, ML-IAP-BIR; test: as above
XIAP-BIR3 [9] = target: T6, XIAP-BIR3; test: as above
ML-IAP-BIR [10] = target: T5, ML-IAP-BIR; test: fluorescence polarization, BIR protein titrated into the probe; apparent Kd from EC50
XIAP-BIR3 [11] = target: T6, XIAP-BIR3; test: as above
[12] = Table 4, P4 amino acid/phenylethylamine scan, Hid-FAM probe

Molecule: COC[C@H](Cc1ccccc1)NC(=O)[C@@H]1CCCN1C(=O)[C@@H](NC(=O)[C@H](C)N)C(C)C [AVPX38]
- Ki (XIAP-BIR3 [1]; [12]): 0.46 µM

Molecule: CC(C)[C@H](NC(=O)[C@H](C)N)C(=O)N1CCC[C@H]1C(=O)N[C@@H](Cc1ccccc1)C(=O)O [AVPF]
- Ki (XIAP-BIR3 [1]; [12]): 0.22 µM
- Ki (XIAP-BIR2 [2]; [12]): 6.5 µM

Molecule: CC(C)[C@H](NC(=O)[C@H](C)N)C(=O)N1CCC[C@H]1C(=O)N[C@@H](CO)[C@@H](O)c1ccccc1 [AVPX25]
- Ki (XIAP-BIR3 [1]; [12]): 7.2 µM

Molecule: CC(C)[C@H](NC(=O)[C@H](C)N)C(=O)N1CCC[C@H]1C(=O)N[C@@H]1C[C@H]1c1ccccc1 [AVPX28a]
- specificity for ML-IAP-BIR relative to XIAP-BIR3, in words (ML-IAP-BIR [3]): improved specificity

Molecule: CC(C)[C@H](NC(=O)[C@H](C)N)C(=O)N1CCC[C@H]1C(=O)NCCc1cccc(Cl)c1 [AVPX39]
- Ki (XIAP-BIR3 [1]; [12]): 0.68 µM

Molecule: COc1ccc(Br)cc1CCNC(=O)[C@@H]1CCCN1C(=O)[C@@H](NC(=O)[C@H](C)N)C(C)C [AVPX36]
- Ki (XIAP-BIR3 [1]; [12]): 3.3 µM

Molecule: CC(NC(=O)[C@@H]1CCCN1C(=O)[C@@H](NC(=O)[C@H](C)N)C(C)C)C(O)c1ccccc1 (single isomer, unassigned) [AVPX29]
- specificity for ML-IAP-BIR relative to XIAP-BIR3, in words (ML-IAP-BIR [3]): improved specificity

Molecule: CC(C)[C@H](NC(=O)[C@H](C)N)C(=O)N1CCC[C@H]1C(=O)N[C@H](CO)[C@H](O)c1ccccc1 [AVPX27]
- Ki (XIAP-BIR3 [1]; [12]): 1.6 µM

Molecule: CC(C)[C@H](NC(=O)[C@H](C)NC(=O)[C@@H](NC(=O)[C@@H](NC(=O)[C@H](CCC(=O)O)NC(=O)[C@H](C)N)C(C)C)C(C)C)C(=O)N[C@@H](CCCCN)C(=O)N[C@@H](CO)C(=O)N[C@@H](CCC(=O)O)C(=O)O
- Ki (ML-IAP-BIR [3]): 4.4 µM
- Ki (XIAP-BIR3 [1]): > 64 µM
- Ki (XIAP-BIR2 [2]): 15 µM

Molecule: CC(C)[C@H](NC(=O)[C@H](C)N)C(=O)N1CCC[C@H]1C(=O)N[C@@H](Cc1ccc(N)cc1)C(=O)N[C@@H](C)C(=O)N[C@@H](CCC(N)=O)C(=O)N[C@@H](CCCCN)C(=O)N[C@@H](CO)C(=O)N[C@@H](CCC(=O)O)C(=O)O [AVPX4AQKSE]
- specificity for ML-IAP-BIR relative to XIAP-BIR3, in words (ML-IAP-BIR [3]): improved specificity

Molecule: CC(C)[C@H](NC(=O)[C@H](C)N)C(=O)N1CCC[C@H]1C(=O)NCC(c1ccccc1)c1ccccc1 [AVPX24]
- improvement in affinity for ML-IAP-BIR relative to AVPF (ML-IAP-BIR [3]; ratio of Ki): 3 fold
- improvement in affinity for ML-IAP-BIR relative to AVPI (ML-IAP-BIR [3]; ratio of Ki): 10 fold
- specificity for ML-IAP-BIR relative to XIAP-BIR3 (ML-IAP-BIR [3]; ratio of Ki): ~9 fold
- Ki (XIAP-BIR3 [1]; [12]): 0.28 µM

Molecule: CCOc1ccccc1CCNC(=O)[C@@H]1CCCN1C(=O)[C@@H](NC(=O)[C@H](C)N)C(C)C [AVPX40]
- Ki (XIAP-BIR3 [1]; [12]): 0.32 µM

Molecule: CC(C)[C@H](NC(=O)[C@H](C)N)C(=O)N1CCC[C@H]1C(=O)NCCc1cccc(C(F)(F)F)c1 [AVPX26]
- Ki (XIAP-BIR3 [1]; [12]): 1.2 µM

Molecule: CC(C)[C@H](NC(=O)[C@H](C)N)C(=O)N1CCC[C@H]1C(=O)N[C@@H](CCc1ccccc1)C(=O)N[C@@H](C)C(=O)N[C@@H](CCC(N)=O)C(=O)N[C@@H](CCCCN)C(=O)N[C@@H](CO)C(=O)N[C@@H](CCC(=O)O)C(=O)O [AVPX12AQKSE]
- specificity for ML-IAP-BIR relative to XIAP-BIR3 (ML-IAP-BIR [3]; ratio of Ki): ~7 fold

Molecule: CC(C)[C@H](NC(=O)[C@H](C)N)C(=O)N1CCC[C@H]1C(=O)NCCc1cccc(F)c1 [AVPX37]
- Ki (XIAP-BIR3 [1]; [12]): 0.84 µM

Molecule: CCOc1cccc(CCNC(=O)[C@@H]2CCCN2C(=O)[C@@H](NC(=O)[C@H](C)N)C(C)C)c1 [AVPX34]
- Ki (XIAP-BIR3 [1]; [12]): 1.1 µM

Molecule: CC(C)[C@H](NC(=O)[C@H](C)N)C(=O)N1CCC[C@H]1C(=O)NC[C@H](O)c1ccccc1 [AVPX33]
- Ki (XIAP-BIR3 [1]; [12]): 0.85 µM

Molecule: CC(CNC(=O)[C@@H]1CCCN1C(=O)[C@@H](NC(=O)[C@H](C)N)C(C)C)c1ccccc1 (stereo partly shown) [AVPX31]
- Ki (XIAP-BIR3 [1]; [12]): 0.69 µM

Molecule: ADPIAQKSE
- Ki (XIAP-BIR2 [4]): 53.4 µM

Molecule: AFPIAQKSE
- Ki (XIAP-BIR2 [4]): 38.1 µM

Molecule: AGPIAQKSE
- Ki (ML-IAP-BIR [5]): 23.9 µM

Molecule: AHPIAQKSE
- Ki (XIAP-BIR2 [4]): 38.1 µM
- Ki (ML-IAP-BIR [5]): 2.4 µM

Molecule: AKPIAQKSE
- Ki (XIAP-BIR2 [4]): 83.9 µM
- Ki (ML-IAP-BIR [5]): 1.9 µM

Molecule: ALPIAQKSE
- Ki (ML-IAP-BIR [5]): 1.7 µM

Molecule: AMPIAQKSE
- Ki (XIAP-BIR3 [6]): 1.8 µM

Molecule: ANPIAQKSE
- Ki (XIAP-BIR2 [4]): 68.7 µM

Molecule: ARPIAQKSE
- Ki (XIAP-BIR2 [4]): 68.7 µM
- Ki (ML-IAP-BIR [5]): 0.73 µM

Molecule: ASPIAQKSE
- Ki (XIAP-BIR2 [4]): 38.1 µM

Molecule: ATPIAQKSE
- Ki (XIAP-BIR2 [4]): 45.8 µM

Molecule: AVIIAQKSE
- Ki (XIAP-BIR2 [4]): 44.2 µM
- Ki (ML-IAP-BIR [5]): 3.5 µM

Molecule: AVLIAQKSE
- Ki (XIAP-BIR2 [4]): 83.9 µM
- Ki (ML-IAP-BIR [5]): 3.5 µM

Molecule: AVPYAQKSE
- Ki (XIAP-BIR2 [4]): 16.9 µM

Molecule: AVVIAQKSE
- Ki (XIAP-BIR2 [4]): 38.6 µM

Molecule: AWPIAQKSE
- Ki (XIAP-BIR2 [4]): 45.8 µM
- Ki (ML-IAP-BIR [5]): 1.9 µM

Molecule: AYPIAQKSE
- Ki (XIAP-BIR2 [4]): 26.7 µM
- Ki (ML-IAP-BIR [5]): 1.6 µM

Molecule: AVPFAVKSE
- Ki (XIAP-BIR2 [4]): 14.7 µM
- Ki (ML-IAP-BIR [5]): 0.16 µM
- Ki (XIAP-BIR3 [6]): 0.39 µM
- Ki (XIAP-BIR2 [7]): 14.7 µM
- Ki (ML-IAP-BIR [8]): 0.16 µM
- Ki (XIAP-BIR3 [9]): 0.39 µM

Molecule: AEVVAVKSE
- Ki (XIAP-BIR2 [7]): 15 µM
- Ki (ML-IAP-BIR [8]): 4.4 µM

B1: AVPFAK(5-FAM)K (peptide)
peptide: AVPFAKK
modifications: 5-carboxyfluorescein (5-FAM) on Lys 6
notes: Fluorescence polarization probe; also called Hid-FAM; 5-carboxyfluorescein-conjugated Hid peptide
- Kd (ML-IAP-BIR [10]): 0.038 µM
- Kd (XIAP-BIR3 [11]): 0.11 µM
